The nature of the data set: Refractive index ne at 23° C., reference wavelength 546.1 nm. Format: physicochemical.

Regarding Cheminox PO-3-OH phenylacetate ester, the “ne (refractive index) of the substance” value is listed as 1.3551.

The values above are taken from US12393007B2, “Method for adapting optical properties of an immersion mixture, and immersion mixtures and components thereof” (Carl Zeiss Microscopy GmbH, priority 2018, dated 2025).
